Measured values published in publication PMC8016844, “Grb2 binding induces phosphorylation-independent activation of Shp2” (Communications Biology, 2021).

Biological target: T1, Shp2 N-terminal SH2 domain (Shp2_(NSH2)) (UniProt Q06124 6-102)
T1 construct: Shp2 (PTPN11), N-terminal SH2 domain; Atto 488 labelled in MST; uniformly 15N-labelled in the NMR titration; Perturbed residues up to Y100 are named, so the construct reaches at least residue 100; also called Shp2-NSH2 domain; source: E. coli BL21 (DE3), pET28b, purified (Talon buffers, Superdex SD75)
T1 sequence (looked up): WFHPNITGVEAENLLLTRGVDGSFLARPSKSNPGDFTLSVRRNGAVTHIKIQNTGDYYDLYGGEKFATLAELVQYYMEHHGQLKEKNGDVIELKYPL
Assay: MST; target protein labelled with Atto 488 NHS ester, 100 nM; unlabelled ligand serially diluted; Monolith NT.115; 25 °C; 20 mM HEPES pH 7.5, 150 mM NaCl, 0.5 mM TCEP, 0.005% Tween 20
Conditions: both partners purified

B1: isolated SH2 domain of Grb2 (Grb2SH2) (domain or fragment, UniProt P62993 60-152, looked up)
chain: WFFGKIPRAKAEEMLSKQRHDGAFLIRESESAPGDFSLSVKFGNDVQHFKVLRDGAGKYFLWVVKFNSLNELVDYHRSTSVSRNQQIFLRDIE
notes: Grb2, SH2 domain; The methods list only GST fusions of the Grb2 domains; source: E. coli BL21 (DE3)
B1 showed a Kd of 33.8 ± 4.5 µM.
